Source: patent US6391882B1, “4,5,6 and 7-indole and indoline derivatitives, their preparation and use” (H. Lundbeck A/S, priority 1998, dated 2002)

Sequences of proteins named here, by UniProt entry; tags and fusion partners are left off.
UniProt P31652, whole entry: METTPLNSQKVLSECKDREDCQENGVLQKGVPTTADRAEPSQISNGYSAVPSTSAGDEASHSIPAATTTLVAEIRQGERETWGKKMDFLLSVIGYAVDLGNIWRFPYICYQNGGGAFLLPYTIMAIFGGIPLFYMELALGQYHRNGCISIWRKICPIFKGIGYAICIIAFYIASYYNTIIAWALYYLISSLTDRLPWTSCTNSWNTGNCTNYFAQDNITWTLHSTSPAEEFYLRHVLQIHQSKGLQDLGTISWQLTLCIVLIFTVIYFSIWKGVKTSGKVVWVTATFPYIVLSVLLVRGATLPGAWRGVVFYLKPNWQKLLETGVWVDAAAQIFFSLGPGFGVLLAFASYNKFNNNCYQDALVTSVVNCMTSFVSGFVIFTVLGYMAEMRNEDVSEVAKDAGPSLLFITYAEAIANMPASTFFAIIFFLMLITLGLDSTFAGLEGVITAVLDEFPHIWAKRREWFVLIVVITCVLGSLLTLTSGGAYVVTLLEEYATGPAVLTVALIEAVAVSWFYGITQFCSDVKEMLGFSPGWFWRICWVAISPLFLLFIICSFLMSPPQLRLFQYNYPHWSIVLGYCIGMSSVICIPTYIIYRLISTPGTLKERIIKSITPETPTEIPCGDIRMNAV

Target: T1, Serotonin reuptake (whole rat brain synaptosomes) (Rattus norvegicus, UniProt P31652)
T1 construct: from tissue; host or cells: whole rat brain synaptosomes
Test: Inhibition of 3H-5-HT uptake into rat brain synaptosomes
Format: biochemical
Description: Inhibition of ^3H-5-HT Uptake Into Rat Brain Synaptosomes
Using this method the ability of drugs to inhibit the accumulation of ^3H-5-HT into whole rat brain synaptosomes is determined in vitro.

SMILES: Fc1ccc([C@@H]2CCNC[C@H]2COc2ccc3c(c2)OCO3)cc1 [Paroxetine, reference compound]
- IC50: 0.29 nM
